From patent publication US20240279281A1, “Peptide Inhibitors of Interleukin-23 Receptor” (Janssen Pharmaceutica NV, priority 2023, published 2024)

Assays:
[1] = molecular target: T1, IL-23-stimulated phosphorylated STAT3 in peripheral blood mononuclear cells (PBMCs) (Homo sapiens, UniProt Q5VWK5); assay: PBMC pSTAT3 Assay; type: cell-based; settings: read-out: PBMC pSTAT3 IC50, PBMCs from healthy donors, IL-23 5 ng/mL, 30 minutes
T1 sequence (Q5VWK5 24-629): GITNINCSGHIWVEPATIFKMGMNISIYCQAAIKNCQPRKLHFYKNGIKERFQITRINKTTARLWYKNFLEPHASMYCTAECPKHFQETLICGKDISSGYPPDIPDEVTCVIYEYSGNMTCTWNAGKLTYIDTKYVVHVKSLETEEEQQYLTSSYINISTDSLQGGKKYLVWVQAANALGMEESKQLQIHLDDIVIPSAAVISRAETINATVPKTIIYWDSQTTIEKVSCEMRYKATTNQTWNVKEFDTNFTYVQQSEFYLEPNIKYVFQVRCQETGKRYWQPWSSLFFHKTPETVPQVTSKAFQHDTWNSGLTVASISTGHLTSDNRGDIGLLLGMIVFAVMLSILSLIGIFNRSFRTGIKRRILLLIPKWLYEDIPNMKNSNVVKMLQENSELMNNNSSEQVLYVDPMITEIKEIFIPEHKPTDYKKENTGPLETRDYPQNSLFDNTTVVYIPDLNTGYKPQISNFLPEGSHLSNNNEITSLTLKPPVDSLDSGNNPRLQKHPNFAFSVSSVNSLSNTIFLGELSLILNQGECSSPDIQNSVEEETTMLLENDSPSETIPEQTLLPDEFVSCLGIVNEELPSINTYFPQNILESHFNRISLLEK
Method: Cryopreserved peripheral blood mononuclear cells (PBMCs) from healthy donors were thawed and washed twice in ImmunoCult-XF T cell expansion medium (XF-TCEM) supplemented with CTL anti-aggregate wash. The cells were counted, resuspended at 2-6×10^5 cells per mL XF-TCEM supplemented with penicillin/streptomycin and 100 ng/mL IL-1β (BioLegend, 579404), and cultured in tissue culture flasks coated with anti-CD3 (eBioscience, 16-0037-85 or BD Pharmingen, 555329) at 37° C. in 5% CO2. On day 4 of culture, PBMCs were collected, washed twice in RPMI-1640 supplemented with 0.1% BSA (RPMI-BSA), and incubated in RPMI-BSA in upright tissue culture flasks for ˜4 hours at 37° C. in 5% CO2. Following this ‘starvation,’ a total of 6×10^4 cells in 30 μL RPMI-BSA was transferred into each well of a 384-well plate pre-spotted with peptide or DMSO. The cells were incubated for 30 minutes prior to the addition of IL-23 at a final concentration of 5 ng/mL. The cells were stimulated with cytokine for 30 minutes at 37° C. in 5% CO2, transferred onto ice for 10 minutes, and lysed. Cell lysates were stored at −80° C. until phosphorylated STAT3 was measured using the phospho-STAT panel kit (Meso Scale Discovery, K15202D).

IL-23R = molecular target: T2, IL-23R (Homo sapiens, UniProt Q5VWK5); assay: IL23R Reporter Assay; type: cell-based; settings: HEK293 cells containing IL-23R, IL-12Rβ1 and STAT-inducible luciferase reporter; 10 ng/mL IL-23; 5 h
T2 construct: host or cells: HEK293
T2 sequence (Q5VWK5 24-629): T1 sequence (Q5VWK5 24-629)
Method: Compounds were serially diluted in 100% (v/v) DMSO) and plated using an Echo acoustic dispenser (Labcyte) into 1536-well non-treated black assay plates (Corning #9146). 3 μL of HEK293 cells containing IL-23R, IL-12Rβ1 and a firefly luciferase reporter gene driven by a STAT-inducible promoter (Promega) were added to the plates (4000 cells/well), followed by 3 μL of 10 ng/mL IL-23 (equivalent to EC90 concentration). After 5 h at 37° C., 5% CO2, 95% relative humidity, cells were placed at 20° C. and treated with BioGlo reagent (Promega) according to the Manufacturer's instructions. Luminescence was measured on a Pherastar FSX (BMG LabTech). Data were normalized to IL-23 treatment (0% inhibition) and 30 μM of control inhibitor (100% inhibition), and IC50 values were determined using a 4-parameter Hill equation.

Row | Substance | IC50 [1] [nM] | IC50 (IL-23R) [nM]
1 | MeCO-r-Pen(3)-N-T-7MeW-K(Ac)-Pen(3)-AEF-6OH2Nal-THP-E-N-3Pya-Sar-CONH2 [SEQ ID NO: 442] | < 0.01 | < 10
2 | PEG2NMe(2)-Pen(3)-N-T-7MeW-K(NMeAc)-Pen(3)-AEF-6OH2Nal-THP-hE(2)-N-3Pya-Sar-CONH2 [compound 358] | < 0.01 | < 10
